Target: arginine vasopressin V2 receptor (Oryctolagus cuniculus, UniProt G1TA00)
Assay: V2 receptor binding assay
Details: rabbit renal medulla membrane, [3H]-Arg-vasopressin 2 nM

Sequences of proteins named here, by UniProt entry; tags and fusion partners are left off. Residues count along the entry.
UniProt G1TA00, 78-446: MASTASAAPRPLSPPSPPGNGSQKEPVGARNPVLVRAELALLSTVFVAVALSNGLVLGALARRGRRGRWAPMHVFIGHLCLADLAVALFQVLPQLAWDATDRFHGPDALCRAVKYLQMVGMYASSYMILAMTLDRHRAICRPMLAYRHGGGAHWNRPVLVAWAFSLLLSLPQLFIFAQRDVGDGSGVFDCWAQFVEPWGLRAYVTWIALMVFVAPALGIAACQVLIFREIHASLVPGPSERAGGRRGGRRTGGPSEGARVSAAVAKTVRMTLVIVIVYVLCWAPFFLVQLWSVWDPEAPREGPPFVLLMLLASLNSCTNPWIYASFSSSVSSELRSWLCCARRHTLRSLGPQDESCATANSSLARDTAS

SMILES: CC(=O)NCCCOc1ccc(C(=O)N2CCC(N3C(=O)CCc4ccccc43)CC2)cc1 [(2), reference compound]
- Binding activity on arginine vasopressin V2 receptor (pki): 4.29
